# Results reported in BindingDB's records for doi:10.1021/acsmedchemlett.5b00050 (Genomics Institute of The Novartis Research Foundation, 2015).
# Assay: Inhibition of Tel-fused TRKB (unknown origin) overexpressed in mouse BA/F3 cells assessed as inhibition of cell proliferation after 48 hrs by luciferase reporter gene assay in absence of recombinant mouse IL3
smiles,measurement,value
N#Cc1ccc(-c2cnc3ccc(N4CCOCC4c4cccc(F)c4)nn23)cc1 (racemic),IC50,47 nM
